# Test results reported in patent publication US7282373B2 (priority 2004, dated 2007).
# By UniProt entry, the sequences of proteins in these tests, tags left out. Where a name states a change or a piece, a line headed by the entry shows the natural chain unless it says otherwise.
# UniProt P0A7Z4: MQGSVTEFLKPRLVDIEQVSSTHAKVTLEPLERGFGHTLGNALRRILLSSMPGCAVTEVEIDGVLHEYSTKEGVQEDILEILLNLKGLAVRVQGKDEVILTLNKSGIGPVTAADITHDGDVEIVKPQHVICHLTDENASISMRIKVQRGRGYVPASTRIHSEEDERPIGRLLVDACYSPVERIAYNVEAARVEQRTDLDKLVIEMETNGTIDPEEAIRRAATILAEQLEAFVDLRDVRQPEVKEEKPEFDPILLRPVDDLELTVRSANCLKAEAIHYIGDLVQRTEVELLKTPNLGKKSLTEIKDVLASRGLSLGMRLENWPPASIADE
# Assays:
# α-CCPGCCN = α-CCPGCCN (Escherichia coli, UniProt P0A7Z4); experiment: Labeling of tagged α, purified protein (SDS-PAGE, x/y fluorescence scanning); conditions: 1 mM or 5 mM DTT; 450 μM bis-arsenical, 10 μM α derivative
# untagged α = untagged α (Escherichia coli, UniProt P0A7Z4); experiment: Labeling of untagged α, purified protein (SDS-PAGE, x/y fluorescence scanning); conditions: 1 mM or 5 mM DTT; 450 μM bis-arsenical, 10 μM α derivative
# [1] = Spectroscopic properties of fluorochrome conjugates; format: physicochemical; conditions: in methanol
# [2] = system: doubly-tetracysteine-tagged peptide “SARP-P4/G1-PP9”; conditions: excitation 488 nm, emission ≧680 nm
# [3] = system: doubly-tetracysteine-tagged peptide “SARP-P4/G1-HL4X”; conditions: excitation 488 nm, emission ≧680 nm
# [4] = system: tetracysteine-tagged peptide “P5”; conditions: pair “G1^0” and “P5”; 5, 10, 20 mM DTT
# [5] = system: tetracysteine-tagged peptide “P3”; conditions: pair “G1^0” and “P3”; 5, 10, 20 mM DTT
# [6] = system: tetracysteine-tagged peptide “P4”; conditions: pair “G1^0” and “P4”; 5, 10, 20 mM DTT
# [7] = system: tetracysteine-tagged peptide “P6”; conditions: pair “G1^0” and “P6”; 5, 10, 20 mM DTT
# [8] = system: doubly-tetracysteine-tagged peptide “SARP-P4/G1-PP12”; conditions: excitation 488 nm, emission ≧680 nm
# [9] = system: tetracysteine-tagged peptide “G1^0”; conditions: 5, 10, 20 mM DTT
# [10] = biological target: doubly-tetracysteine-tagged protein “α-SARP-P3/G1-PP9” (Escherichia coli, UniProt P0A7Z4); experiment: Multicolor, multisite labeling of single proteins (SARP) in crude lysate; format: binding
# [11] = biological target: doubly-tetracysteine-tagged protein “α-SARP-P4/G1-PP9” (Escherichia coli, UniProt P0A7Z4); experiment: as above; format: binding
# [12] = no other protein detectably labeled
Substance,labeling of α-CCPGCCN (α-CCPGCCN),labeling of untagged α (untagged α),"λmax,em [1]","λmax,exc [1]",further results
Cy3 bis-propionamido-phenylarsine-ethanedithiol,labeling was observed,no labeling was observed,567 nm,552 nm,–
Cy3 bis-propionamido-phenylarsineoxide,labeling was observed,no labeling was observed,566 nm,552 nm,–
Cy3 bis-sulfonato bis-propionamido-phenylarsine-ethanedithiol,–,–,572 nm,558 nm,–
Cy5 bis-propionamido-phenylarsine-ethanedithiol,labeling was observed,no labeling was observed,666 nm,648 nm,–
Cy5 bis-propionamido-phenylarsineoxide,labeling was observed,no labeling was observed,665 nm,647 nm,–
Cy5 bis-sulfonato bis-propionamido-phenylarsine-ethanedithiol,–,–,673 nm,650 nm,"co-labeling and FlAsH-Cy5 FRET (SARP detection) ([2]; both probes added): co-labeled; FlAsH-Cy5-FRET-dependent detection signal, control with this probe alone (other probe omitted) [2]: no signal; co-labeling and FlAsH-Cy5 FRET (SARP detection) ([3]; both probes added): co-labeled; FlAsH-Cy5-FRET-dependent detection signal, control with this probe alone (other probe omitted) [3]: no signal; labeling of “P5” [4]: labeled; labeling of “P3” [5]: labeled; labeling of “P4” [6]: labeled; labeling of “P6” [7]: labeled; co-labeling and FlAsH-Cy5 FRET (SARP detection) ([8]; both probes added): co-labeled; FlAsH-Cy5-FRET-dependent detection signal, control with this probe alone (other probe omitted) [8]: no signal; labeling of “G1^0” as level of labeling of “P3” ([9]; pair “G1^0” and “P3”): < 10%; labeling of “G1^0” as level of labeling of “P4” ([9]; pair “G1^0” and “P4”): < 10%; labeling of “G1^0” as level of labeling of “P5” ([9]; pair “G1^0” and “P5”): < 10%; labeling of “G1^0” as level of labeling of “P6” ([9]; pair “G1^0” and “P6”): < 10%; FlAsH-Cy5-FRET-dependent detection signal, control with this probe alone (other probe omitted) [10]: no signal; co-labeling and FlAsH-Cy5 FRET (SARP detection) ([10]; both probes added): co-labeled; specificity of co-labeling and FlAsH-Cy5-FRET-dependent detection [10, 12]: highly specific; FlAsH-Cy5-FRET-dependent detection signal, control with this probe alone (other probe omitted) [11]: no signal; co-labeling and FlAsH-Cy5 FRET (SARP detection) ([11]; both probes added): co-labeled; specificity of co-labeling and FlAsH-Cy5-FRET-dependent detection [11, 12]: highly specific"
Cy7 bis-propionamido-phenylarsine-ethanedithiol,–,–,774 nm,743 nm,–
